From PubChem BioAssay AID696 (Sanford-Burnham Center for Chemical Genomics, 2007)

Protein sequences, listed by entry. Tags and fused reporters are not part of them. Lines headed by an entry give the natural chain unless they say otherwise; changes in a name come on top.
UniProt P05187: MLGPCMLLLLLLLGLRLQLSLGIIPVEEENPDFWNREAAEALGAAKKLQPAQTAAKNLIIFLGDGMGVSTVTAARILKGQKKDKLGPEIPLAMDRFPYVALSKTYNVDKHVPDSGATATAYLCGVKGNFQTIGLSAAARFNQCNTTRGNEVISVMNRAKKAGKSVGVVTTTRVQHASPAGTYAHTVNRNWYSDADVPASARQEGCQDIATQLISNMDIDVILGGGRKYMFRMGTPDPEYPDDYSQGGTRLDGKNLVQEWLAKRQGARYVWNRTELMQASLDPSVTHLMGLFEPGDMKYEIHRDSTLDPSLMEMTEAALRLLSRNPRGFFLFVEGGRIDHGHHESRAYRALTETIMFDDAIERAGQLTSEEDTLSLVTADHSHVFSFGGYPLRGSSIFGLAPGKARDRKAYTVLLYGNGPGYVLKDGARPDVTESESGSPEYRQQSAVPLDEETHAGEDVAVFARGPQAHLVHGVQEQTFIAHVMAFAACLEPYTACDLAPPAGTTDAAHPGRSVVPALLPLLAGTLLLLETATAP

Biological target: Alkaline phosphatase, placental type (Homo sapiens) (UniProt P05187)
Test: PLAP enzyme activators, biochemical, luminescence, HTS (AID 696)
Details: purified PLAP enzyme, luminescent substrate read-out

## COc1ccc2c(c1OC)C(=O)OC2CC(=O)c1ccc(O)c(O)c1 (stereo unspecified)
  EC50: 25.3 µM
